Measured values reported in patent US6214345A, “Lysosomal enzyme-cleavable antitumor drug conjugates” (Bristol-Myers Squibb Co., priority 1993, dated 2001).

Settings: freshly drawn human plasma, about 37° C.

For “BR96-succinimidocaproyl-phenylalanine-lysine-p-aminovenzyl-carbamoyloxy-doxorubicin [BR96-DOX]”, the “free DOX detected from the conjugate in plasma” value (over 7.5 hours) was “No free DOX was detected” and the “half-life in human plasma” value (no release over 7.5 hours) was greater than 15.6 days.
